Results on one compound are retold here after patent US20240034729A9, “HETEROCYCLIC COMPOUND, INTERMEDIATE, PREPARATION METHOD THEREFOR AND APPLICATION THEREOF” (WUHAN LL SCIENCE AND TECHNOLOGY DEVELOPMENT CO., LTD., priority 2018, published 2024).

By UniProt entry, the sequences of proteins in these tests, tags left out. Where a name states a change or a piece, a line headed by the entry shows the natural chain unless it says otherwise.
UniProt P56373, whole entry: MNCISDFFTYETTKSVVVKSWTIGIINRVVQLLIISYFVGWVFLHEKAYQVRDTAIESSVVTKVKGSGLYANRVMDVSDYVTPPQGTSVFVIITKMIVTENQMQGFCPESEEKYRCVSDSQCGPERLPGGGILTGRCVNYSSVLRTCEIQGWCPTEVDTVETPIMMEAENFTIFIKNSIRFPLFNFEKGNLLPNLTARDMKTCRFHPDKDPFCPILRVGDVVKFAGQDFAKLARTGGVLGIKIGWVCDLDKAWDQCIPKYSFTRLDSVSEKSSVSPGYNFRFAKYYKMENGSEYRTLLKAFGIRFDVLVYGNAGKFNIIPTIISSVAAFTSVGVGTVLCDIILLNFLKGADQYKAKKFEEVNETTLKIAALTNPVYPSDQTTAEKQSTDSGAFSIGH
UniProt Q9UBL9, whole entry: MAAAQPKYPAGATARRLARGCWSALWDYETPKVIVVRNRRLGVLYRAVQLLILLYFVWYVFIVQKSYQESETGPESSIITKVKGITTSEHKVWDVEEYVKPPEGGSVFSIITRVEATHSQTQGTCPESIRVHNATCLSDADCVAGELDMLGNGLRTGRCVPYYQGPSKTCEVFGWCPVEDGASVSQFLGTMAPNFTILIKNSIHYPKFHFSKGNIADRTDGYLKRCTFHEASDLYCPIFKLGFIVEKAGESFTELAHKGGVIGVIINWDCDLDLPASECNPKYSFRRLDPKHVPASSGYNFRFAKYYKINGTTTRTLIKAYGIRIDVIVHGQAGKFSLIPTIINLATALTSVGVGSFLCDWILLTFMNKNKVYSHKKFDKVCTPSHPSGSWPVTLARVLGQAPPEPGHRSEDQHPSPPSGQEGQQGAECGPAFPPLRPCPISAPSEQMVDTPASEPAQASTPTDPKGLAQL

pIC50: −log10 of the molar value.

Data set [1] concerns Male Dunkin Hartley guinea pigs. Put plainly: Citric acid only cough model. Details: Mean cough latency: unit not given beside the values. Conditions: for Mean number of coughs: 17.5% citric acid.
Data set [2] is described as follows: In vitro metabolic stability, rat liver microsome. Type of data set: in vitro ADME. Particulars: 1 mg/mL liver microsome protein, 37° C.; NA = essentially not metabolized. As for the experimental part:
(§1) The in vitro metabolic stability of the compounds disclosed herein was determined through incubation of liver microsomes of various species. […] At each time point, 100 μL of the reaction mixture was added into a centrifuge tube containing 400 μL of internal standard working solution (containing a 200 ng/mL solution of dexamethasone, diclofenac, tolbutamide and labetalol in acetonitrile) precooled at 0° C. so as to terminate the reaction, and the mixture was then centrifuged at 10,000 g for 10 min at 4° C. The supernatant was collected for LC-MS assay so as to obtain the values of in vitro metabolic half-life of the test compounds in liver microsomes of various species.
On the technique in general: Liver microsomes are a subcellular fraction often used to study metabolism.

Data set [3] deals with hP2X3 (human purinergic P2X receptor subtype 3) (Homo sapiens (Human), UniProt P56373). As to the kind of experiment: FLIPR calcium assay, hP2X3 expressed in HEK293 cells. Type of data set: cell-based. Conditions: read-out: P2X3 IC50; HEK293 cells expressing hP2X3, agonist BZ-ATP 2.5 μM; class symbols.
Data set [4] can be described thus: In vitro metabolic stability, human liver microsome. It is filed as in vitro ADME. Particulars: 1 mg/mL liver microsome protein, 37° C.; NA = essentially not metabolized. As for the experimental part: as §1
Another data set deals with Male SD rats. Put plainly: Two-bottle dysgeusia test (quinine water vs normal water). It is filed as in vivo, rat. Conditions: 20 mg/kg.
In data set [5] the target is hP2X2/3 (heterodimeric receptors formed by human purinergic P2X receptors subtype 2 and subtype 3) (Homo sapiens (Human), UniProt P56373+Q9UBL9). As to the kind of experiment: FLIPR calcium assay, hP2X2/3 expressed in HEK293 cells (P2X2/3 receptor selectivity). Type of data set: cell-based.
Data set [6] in a line: In vitro metabolic stability, guinea pig liver microsome. Particulars: 1 mg/mL liver microsome protein, 37° C.; NA = essentially not metabolized.
Another data set has as its system HepG2 cells. Put plainly: In vitro cytotoxicity assay, CCK-8 method. Conditions: read-out: HepG2 CC50, 48 h. (In general: Tetrazolium assays rely on reduction of a dye to a coloured formazan, in cell work by metabolically active cells.)
[7] abbreviates: before administration (baseline of the group).

As to `COC(=O)N1CCO[C@@H](Cc2c(-c3c(F)cc(NC(C)=O)cc3F)nc3cc(Cl)ccn23)C1`, in data set [1] (30 mg/kg), the “Cough inhibition rate Vs Baseline (%)” value was 66.8% and the “Cough inhibition rate Vs Vehicle (%)” value is 62.7%. The “Number of coughs and cough latency (in words)” value in data set [1] (30 mg/kg, compared with the blank vehicle or the condition before administration) was “can effectively reduce the number of coughs and prolong the cough latency”. Besides, in data set [1] (after administration, 30 mg/kg), the Mean cough latency is listed as 229.00 and the “Mean number of coughs” value is recorded as 6.42. Moreover, in data set [1] (setting [7]), the Mean cough latency worked out at 75.92 and the “Mean number of coughs” value turned out to be 19.33. For the same compound, in data set [2], the “T1/2 in rat liver microsome” value worked out at 0.875 h. Also, the pIC50 in data set [3] is over 8.00. Also, the “T1/2 in human liver microsome” value in data set [4] stood at 3.4438 h. In the data set on Male SD rats (compared with the blank vehicle), the “Ratio of quinine/water intake (in words)” value is given as “almost unaffected”. Also, in the data set with Male SD rats (Table 8, rats, single intraperitoneal injection, water intake within 15 min, 0.3 mM quinine), the “Quinine/tap water* 100%” value is 4.54%. For the same compound, the Folds of selectivity result in data set [5] ((IC50 for P2X2/3)/(IC50 for P2X3), class symbols) is “A (A: folds of selectivity >1000)”. Also, the pIC50 in data set [5] (read-out: IC50 for P2X2/3 receptors, HEK293 cells expressing hP2X2/3, agonist BZ-ATP 5 μM, unit inferred) was under 4.22. Further, in data set [6], the “T1/2 in guinea pig liver microsome” value worked out at 2.967 h. The CC50 in the data set on HepG2 cells is over 100 µM.

As usually defined, the CC50 is the concentration at which the toxic effect on the cells reaches its halfway point.
